Experimental data reported in BindingDB's records for doi:10.1021/jm0009181 (National Center For Genetic Engineering and Biotechnology …, 2000).

The chains behind the UniProt entries cited, without tags or fusion partners.
UniProt A7UD81, whole entry: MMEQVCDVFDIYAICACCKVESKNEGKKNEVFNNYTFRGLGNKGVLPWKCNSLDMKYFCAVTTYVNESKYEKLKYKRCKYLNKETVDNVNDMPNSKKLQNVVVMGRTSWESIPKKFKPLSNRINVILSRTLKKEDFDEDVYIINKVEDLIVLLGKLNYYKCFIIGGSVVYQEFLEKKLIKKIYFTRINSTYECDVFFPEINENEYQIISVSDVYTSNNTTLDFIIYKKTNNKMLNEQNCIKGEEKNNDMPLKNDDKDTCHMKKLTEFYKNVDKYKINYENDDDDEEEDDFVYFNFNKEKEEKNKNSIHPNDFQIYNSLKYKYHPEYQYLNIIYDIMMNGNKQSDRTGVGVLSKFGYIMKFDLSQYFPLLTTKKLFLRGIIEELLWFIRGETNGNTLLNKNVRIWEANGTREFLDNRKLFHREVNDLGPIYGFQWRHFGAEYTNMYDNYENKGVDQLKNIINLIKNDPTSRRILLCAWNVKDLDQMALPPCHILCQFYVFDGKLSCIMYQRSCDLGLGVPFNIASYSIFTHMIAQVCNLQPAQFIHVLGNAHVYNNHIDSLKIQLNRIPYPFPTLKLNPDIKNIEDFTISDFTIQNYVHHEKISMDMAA

Target: Bifunctional dihydrofolate reductase-thymidylate synthase (Plasmodium falciparum, UniProt A7UD81)
Assay: Evaluated for inhibition constant (Ki wt) against Wild-type dihydrofolate reductase of Plasmodium falciparum

Work on `CC1(C)N=C(N)N=C(N)N1c1cccc(Cl)c1` [1-(3-chlorophenyl)-6,6-dimethyl-1,6-dihydro-1,3,5-triazine-2,4-diamine] yielded a Ki of 3.7 nM.
